The assay deals with Mu-type opioid receptor (Cavia porcellus, UniProt P97266). In words: ChEBML_146264. The procedure:
Compound was evaluated for the opioid receptor mu affinity determined with [3H][D-Ala2-MePhe4-Gly-ol5]-enkephalin (DAGOL) in the presence of excess unlabeled DAGOL to suppress mu binding.

Protein sequences, listed by entry. Tags and fused reporters are not part of them.
UniProt P97266, whole entry, looked up: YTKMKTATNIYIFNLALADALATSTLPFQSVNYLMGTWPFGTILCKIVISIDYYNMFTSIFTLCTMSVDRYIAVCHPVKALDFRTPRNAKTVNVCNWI

By Ki is commonly meant the equilibrium dissociation constant of an inhibitor or competing ligand from its target. Low values mean a stronger hold on the target, high ones a looser hold on the target. The molecule `CN(C(=O)Cc1ccc(Cl)c(Cl)c1)[C@@H]1CCCC[C@H]1N1CCCC1` registered a Ki of 880 nM.

These data come from BindingDB's records for 1846919.
